# Laboratory results from the supplement of paper PMC7380943.
# The list shows a part of the results, in another mix than the full data.
# Tested on: CLZ3 (HCA2 human fibroblast dual HR-NHEJ reporter)
# Test: HR repair efficiency (tdTomato+ cells) relative to control (log10 fold); higher = more homologous recombination
# Conditions: 5 µM; doxycycline 0.5 ug/mL
# 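Also: compound given one day before doxycycline, which switches on I-SceI endonuclease expression to create double-strand breaks within the integrated reporter.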
compound,measurement,value
COc1c2ccccc2nc2occc12 [Dictamine],HR repair efficiency (log10),0.0499
